Target: PDGF-receptor beta enzyme comprising the tyrosine kinase domain (Homo sapiens, UniProt P09619)
Assay: Inhibition of PDGF-receptor kinase activity (cell-free, PLC1 peptide, 33P Flashplate)
Assay type: biochemical
Details: PDGF-R kinase activity

Chains of the proteins cited; added tags and fusions are not shown. Residues count along the entry.
UniProt P09619, 545-1106 limits assumed: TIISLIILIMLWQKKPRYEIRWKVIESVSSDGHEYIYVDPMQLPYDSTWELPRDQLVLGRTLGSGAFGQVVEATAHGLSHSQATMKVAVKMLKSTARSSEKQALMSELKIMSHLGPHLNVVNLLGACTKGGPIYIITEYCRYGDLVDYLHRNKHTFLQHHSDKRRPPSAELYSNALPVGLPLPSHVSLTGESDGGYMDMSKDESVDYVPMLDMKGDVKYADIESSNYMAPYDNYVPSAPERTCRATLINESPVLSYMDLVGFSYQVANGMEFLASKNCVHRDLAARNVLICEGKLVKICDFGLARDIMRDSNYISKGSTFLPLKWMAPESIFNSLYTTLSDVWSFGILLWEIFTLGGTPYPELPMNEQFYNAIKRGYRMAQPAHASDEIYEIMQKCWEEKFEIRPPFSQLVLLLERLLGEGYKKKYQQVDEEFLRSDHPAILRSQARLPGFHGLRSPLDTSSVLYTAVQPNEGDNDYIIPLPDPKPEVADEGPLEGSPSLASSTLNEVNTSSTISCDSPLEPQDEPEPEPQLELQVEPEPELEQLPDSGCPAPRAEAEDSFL

For `COc1cc2c(cc1OC)-c1n[nH]c(Nc3ccc(C)c(Nc4nccc(-c5cccnc5)n4)c3)c1C2`, the IC50 was 1.1 µM and the “Percent Inhibition @ 10 uM” value (compound at 10 uM) was 72%.
